Measurements reported in patent US7956082B2, “Indole derivative having PGD2 receptor antagonist activity” (Shionogi & Co., Ltd, priority 2005, dated 2011).
pIC50: −log10 of the molar value.

Amino acid sequences for entries named in this document (tags omitted).
UniProt Q13258, whole entry: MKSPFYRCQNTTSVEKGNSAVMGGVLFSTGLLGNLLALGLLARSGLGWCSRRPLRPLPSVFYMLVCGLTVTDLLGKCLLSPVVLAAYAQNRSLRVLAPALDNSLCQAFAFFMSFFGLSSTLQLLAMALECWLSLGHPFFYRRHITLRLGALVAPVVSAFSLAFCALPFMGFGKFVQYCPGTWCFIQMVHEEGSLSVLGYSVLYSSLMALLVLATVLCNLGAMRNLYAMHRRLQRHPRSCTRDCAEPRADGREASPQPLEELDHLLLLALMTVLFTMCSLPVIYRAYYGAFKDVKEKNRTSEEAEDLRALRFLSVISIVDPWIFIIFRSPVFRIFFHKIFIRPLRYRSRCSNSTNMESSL

Target: DP receptor (Homo sapiens, UniProt Q13258)
Test: cAMP assay with washed platelets (DP inhibitory activity in vitro)
Conditions: read-out: IC50 (50% DP-inhibitory concentration in the cAMP assay), 100 nM PGD2, cAMP by HTRF
Protocol: 1) Preparation of Platelet and a Method of cAMP Assay
30 ml of peripheral blood was collected from a healthy volunteer using a syringe containing one ninth amount of 3.8% sodium citrate for diagnosis. After being centrifuged at 180 g for 10 minutes at room temperature, a supernatant was collected and used as Platelet Rich Plasma (PRP). The resulting PRP was washed with wash buffer and centrifuged three times (Washed Platelet: WP) and platelets were counted by a microcell counter. WP was added to a plate in amount of 1.5×10^8/assay and the plate was treated, with 3-isobutyl-1-methylxanthin (IBMX; 0.5 mM) for 5 minutes. A reaction was initiated by adding 100 nM of PGD2 5 min after an addition of a test compound. The reaction was terminated with an addition of 1N HCl after 2 minutes and the cells were destructed using 12% triton X-100. An amount of cAMP in the supernatant was assayed by Homogeneous […] (HTRF)

In the case of COc1ccc(S(=O)(=O)N2CCC(c3cn(CC(=O)O)c4ccc(Cl)cc34)C2)cc1 (stereo not shown), the pIC50 was 7.64.
